Here are results for two compounds from PubChem BioAssay AID504894 (National Center for Advancing Translational Sciences (NCATS), 2011).

Each structure is given as a SMILES string. This is a selection; strong and weak results do not stand in their true shares. Activity calls are given as the source filed them. Calls come from the whole dose curve; as a rule, active = well fitted activation curve with a large enough effect; inconclusive = small, poorly fitted or top-dose-only effect, or another doubt; inactive = no such curve, though single readings can be large or run the other way.

This test can be described thus: Activators of T cell receptors: qHTS campaign. Note: % of control where 0% means no effect. The conditions noted are these: primary human leukocytes, anti-CD3, IL-2 HTRF, 48 h; at 9.22 µM (top of the series). The source says: Normally activation of naive T cells requires two signals. 1. A signal through the T cell receptor (TCR) which provides antigen specificity to the response. 2. Signals through co-stimulatory molecules, which are necessary for proliferation, survival and cytokine production. In the absence of co-stimulatory signals T cells are not effectively activated, and may even be rendered anergic or unresponsive to subsequent signaling. This lack of costimulation has been shown in multiple model systems to be a major factor in the limited strength and effectiveness of anti-tumor T cell responses. The goal of this project is to identify small molecule compounds that will stimulate T cell activation in the presence of TCR signaling but in the absence of co-stimulatory signals, thereby allowing activation of naive T cells in the absence of co-stimulation. Identification of such compounds would have clear experimental and clinical applications in instances where desirable antigen-specific immune responses are not generated due to a lack of co-stimulation, for example in the generation of anti-tumor responses. […] The screen will be carried out using a novel homogeneous time resolved fluorescence energy transfer (HTRF) assay to measure production of the cytokine IL-2 by activated T cells and will be tested against the NIH Molecular Libraries Small Molecule Repository (MLSMR). […]
Take `CCC(=O)N(c1ccccc1)C1(COC)CCN(CCn2nnn(CC)c2=O)CC1`: the activation of IL-2 secretion was inactive: -11.3%. As for `CCC(=O)N(c1ccccc1)C1(COC)CCN(CCc2cccs2)CC1`, the activation of IL-2 secretion was inactive: 2.93%.
